# Assay results taken from patent US4518779A, “1,2,3,4-Tetrahydro-1-aminomethyl-4-phenyl isoquinolines” (Pennwalt Corporation, priority 1982, dated 1985).
# System: [^3 H]-QNB binding in brain homogenates
# Assay: in vitro inhibition of the binding of tritiated quinuclidinyl benzylate in brain
# Settings: read-out: (^3 H)QNB rating: molar concentration required to inhibit by 50% the binding of [^3 H]QNB, smaller numbers indicate greater potency
row,Compound,pIC50
1,"CNC[C@@H]1NC[C@H](c2ccccc2)c2ccccc21 (relative stereo) [Example 1 cis form, cis-1,2,3,4-tetrahydro-1-methylaminomethyl-4-phenylisoquinoline dihydrochloride]",5.59
2,"CNC[C@@H]1NC[C@@H](c2ccccc2)c2ccccc21 (relative stereo) [Example 1 trans form, trans-1,2,3,4-tetrahydro-1-methylaminomethyl-4-phenylisoquinoline dihydrochloride]",5.44
3,"CN(C)C[C@@H]1NC[C@H](c2ccccc2)c2ccccc21 (relative stereo) [Example 2, 1,2,3,4-tetrahydro-1-dimethylaminomethyl-4-phenylisoquinoline dihydrochloride]",5.40
4,"CCNC[C@@H]1NC[C@H](c2ccccc2)c2ccccc21 (relative stereo) [Example 4, 1,2,3,4-tetrahydro-1-(ethylamino)methyl-4-phenylisoquinoline dihydrochloride]",5.15

# pIC50: −log10 of the molar value. Where a name gives a salt, the structure may show the parent alone.
